Measured values published in patent publication US10894788B2, “Inhibitors of cyclin-dependent kinases” (Kinnate Biopharma Inc., priority 2018, dated 2021).

The chains behind the UniProt entries cited, without tags or fusion partners.
UniProt Q9NYV4, whole entry: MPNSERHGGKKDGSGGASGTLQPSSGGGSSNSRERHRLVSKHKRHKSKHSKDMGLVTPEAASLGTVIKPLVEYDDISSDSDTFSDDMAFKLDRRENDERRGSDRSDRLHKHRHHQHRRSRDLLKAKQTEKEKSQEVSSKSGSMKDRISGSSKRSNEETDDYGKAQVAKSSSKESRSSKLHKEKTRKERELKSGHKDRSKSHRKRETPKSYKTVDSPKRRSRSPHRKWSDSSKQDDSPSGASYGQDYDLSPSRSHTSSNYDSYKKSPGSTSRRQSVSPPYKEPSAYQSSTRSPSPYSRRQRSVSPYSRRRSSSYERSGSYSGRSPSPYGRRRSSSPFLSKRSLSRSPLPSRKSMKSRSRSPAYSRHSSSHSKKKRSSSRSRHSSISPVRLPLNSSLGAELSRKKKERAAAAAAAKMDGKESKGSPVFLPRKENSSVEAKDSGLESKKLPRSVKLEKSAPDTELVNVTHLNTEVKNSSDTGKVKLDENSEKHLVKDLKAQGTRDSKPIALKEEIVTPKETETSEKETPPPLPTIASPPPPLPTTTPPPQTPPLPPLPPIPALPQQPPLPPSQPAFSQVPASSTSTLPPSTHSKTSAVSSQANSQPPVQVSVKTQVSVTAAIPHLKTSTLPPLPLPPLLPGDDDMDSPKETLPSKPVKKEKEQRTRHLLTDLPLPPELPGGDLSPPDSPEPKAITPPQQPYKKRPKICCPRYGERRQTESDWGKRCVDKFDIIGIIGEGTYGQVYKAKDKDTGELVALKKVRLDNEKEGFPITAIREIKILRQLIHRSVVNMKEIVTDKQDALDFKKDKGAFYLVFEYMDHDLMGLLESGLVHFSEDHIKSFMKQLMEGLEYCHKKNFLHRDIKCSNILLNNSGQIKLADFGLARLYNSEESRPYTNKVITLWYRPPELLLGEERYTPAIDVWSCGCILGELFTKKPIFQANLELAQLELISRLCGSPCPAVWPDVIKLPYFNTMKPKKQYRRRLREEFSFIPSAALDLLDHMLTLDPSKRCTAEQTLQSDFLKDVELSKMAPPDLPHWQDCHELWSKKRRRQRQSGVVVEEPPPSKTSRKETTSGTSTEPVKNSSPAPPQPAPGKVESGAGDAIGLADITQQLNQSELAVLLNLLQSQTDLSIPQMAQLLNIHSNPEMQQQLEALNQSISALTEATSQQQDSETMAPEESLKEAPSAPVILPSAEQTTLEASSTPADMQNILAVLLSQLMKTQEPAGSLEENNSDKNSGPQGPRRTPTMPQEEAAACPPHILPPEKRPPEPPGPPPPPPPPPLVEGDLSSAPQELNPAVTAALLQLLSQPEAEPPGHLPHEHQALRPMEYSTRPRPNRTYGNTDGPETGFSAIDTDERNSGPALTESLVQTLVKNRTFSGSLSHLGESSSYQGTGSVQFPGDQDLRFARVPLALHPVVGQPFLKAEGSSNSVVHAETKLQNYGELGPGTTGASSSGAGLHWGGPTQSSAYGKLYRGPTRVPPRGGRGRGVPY

Biological target: CDK12 wt/CycK (Homo sapiens (Human), UniProt Q9NYV4)
Assay: Radiometric protein kinase assay (33PanQinase Activity Assay), Assay Condition A (thiol containing conditions)
Format: biochemical
Settings: thiol containing conditions (1.2 mM DTT), ATP 0.3 μM
Description: Example 1—Assay Condition A (Thiol Containing Conditions)
Objective: The IC50 profile of test compounds was determined using three protein kinases.
Test compounds: The compounds were provided as pre-weighed powders in vials. The compounds were dissolved to 1×10^−02M by adding DMSO. 100 μl of each of the resulting stock solutions were transferred into column 2 of four 96 well “master plates”.
Prior to testing, the 1×10^−02M stock solutions in column 2 of the master plates were subjected to a serial, semi-logarithmic dilution using 100% DMSO as a solvent. […] Column 1 and 7 were filled with 100% DMSO as controls. Subsequently, 2×10 μl from each well of the serial diluted copy plates were aliquoted with a 96 channel pipettor into two identical sets of “compound dilution plates”.
In the process, 90 μl H2O were added to each well of a set of compound dilution plates. To minimize potential precipitation, the H2O was added to each plate only a few minutes before the transfer of the compound solutions into the assay plates. Each plate was shaken thoroughly, resulting in a “compound dilution plate/10% DMSO”.
For the assays, 5 μl solution from each well of the compound dilution plates/10% DMSO were transferred into the assay plates. The final volume of the assay was 50 μl. All compounds were tested at 10 final assay concentrations in the range from 1×10^−04M to 3×10^−09M, in singlicate. The final DMSO concentration in the reaction cocktails was 1% in all cases.
Recombinant protein kinases: All protein kinases were expressed in Sf9 insect cells or in E. coli as recombinant GST-fusion proteins or His-tagged proteins, either as full-length or enzymatically active fragments. All kinases were produced from human cDNAs and purified by either GSH-affinity chromatography or immobilized metal. Affinity tags were removed from a number of kinases during purification. The purity of the protein kinases was examined by SDS-PAGE/Coomassie staining, the identity was checked by mass spectroscopy.
Protein kinase assay: A radiometric protein kinase assay (^33PanQinase® Activity Assay) was used for measuring the kinase activity of the three protein kinases. All kinase assays were performed in 96-well FlashPlates™ from PerkinElmer (Boston, Mass., USA) in a 50 μl reaction volume. The reaction cocktail was pipetted in four steps in the following order: • 20 μl of assay buffer (standard buffer) • 5 μl of ATP solution (in H2O) • 5 μl of test compound (in 10% DMSO) • 20 μl enzyme/substrate mix
The following amounts of enzyme and substrate were used per well:
The reaction cocktails were incubated at 30° C. for 60 minutes. The reaction was stopped with 50 μl of 2% (v/v) H3PO4, plates were aspirated and washed two times with 200 μl 0.9% (w/v) NaCl. Incorporation of ^33Pi was determined with a microplate scintillation counter (Microbeta, Wallac). All assays were performed with a BeckmanCoulter/SAGIAN™ Core System.
Evaluation of raw data: The median value of the counts in column 1 (n=8) of each assay plate was defined as “low control”. This value reflects unspecific binding of radioactivity to the plate in the absence of a protein kinase but in the presence of the substrate. The median value of the counts in column 7 of each assay plate (n=8) was taken as the “high control”, i.e. full activity in the absence of any inhibitor. The difference between high and low control was taken as 100% activity.

CN(C)C/C=C/C(=O)N1CCOc2c(C(=O)N3CC[C@@H](Nc4ncc(Cl)cn4)C3)cccc21 [Example 129, (R,E)-1-(8-(3-((5-chloropyrimidin-2-yl)amino)pyrrolidine-1-carbonyl)-2H-benzo[b][1,4]oxazin-4(3H)-yl)-4-(dimethylamino)but-2-en-1-one]
IC50: 100 to 1000 nM

CN(C)C/C=C/C(=O)N1CCc2cc(C(=O)N3CC[C@@H](Nc4ncc(Cl)cn4)C3)ccc2C1 [Example 149, (R,E)-1-(6-(3-((5-chloropyrimidin-2-yl)amino)pyrrolidine-1-carbonyl)-3,4-dihydroisoquinolin-2(1H)-yl)-4-(dimethylamino)but-2-en-1-one]
IC50: 1000 to 10000 nM

CCOc1nc(N[C@@H]2CCN(C(=O)c3ccc(CNC(=O)/C=C/CN(C)C)cc3)C2)ncc1Cl [Example 121, (R,E)-N-(4-(3-((5-chloro-4-ethoxypyrimidin-2-yl)amino)pyrrolidine-1-carbonyl)benzyl)-4-(dimethylamino)but-2-enamide]
IC50: 1000 to 10000 nM

CN(C)C/C=C/C(=O)NCc1ccc(C(=O)N2CC[C@@H](Nc3ncc(Cl)cn3)C2)cc1 [Example 122, (R,E)-N-(4-(3-((5-chloropyrimidin-2-yl)amino)pyrrolidine-1-carbonyl)benzyl)-4-(dimethylamino)but-2-enamide]
IC50: 10000 to 30000 nM

COc1nc(N[C@@H]2CCN(C(=O)c3ccc(NC(=O)/C=C/CN(C)C)c(F)c3)C2)ncc1Cl [Example 145, (R,E)-N-(4-(3-((5-chloro-4-methoxypyrimidin-2-yl)amino)pyrrolidine-1-carbonyl)-2-fluorophenyl)-4-(dimethylamino)but-2-enamide]
IC50: 100 to 1000 nM

C=CC(=O)Nc1ccc(C(=O)N2CC[C@@H](Nc3ncc(Cl)c(N(C)C)n3)C2)cc1 [Example 86, (R)—N-(4-(3-((5-chloro-4-(dimethylamino)pyrimidin-2-yl)amino)pyrrolidine-1-carbonyl)phenyl)acrylamide]
IC50: < 100 nM

C=CC(=O)Nc1ccc(C(=O)N2CC[C@@H](Nc3ncc(Br)cn3)C2)cc1OCCN(C)C [Example 157, (R)—N-(4-(3-((5-bromopyrimidin-2-yl)amino)pyrrolidine-1-carbonyl)-2-(2-(dimethylamino)ethoxy)phenyl)acrylamide]
IC50: < 100 nM

[2H]c1nc(N[C@@H]2CCN(C(=O)c3ccc(NC(=O)C=C)cc3)C2)nc(N(C)C)c1Cl [Example 139, (R)—N-(4-(3-((5-chloro-4-(dimethylamino)-6-deuteropyrimidin-2-yl)amino)pyrrolidine-1-carbonyl)phenyl)acrylamide]
IC50: < 100 nM

CN(C)C/C=C/C(=O)N1CCc2ccc(C(=O)N3CC[C@@H](Nc4ncc(Cl)cn4)C3)cc21 [Example 146, (R,E)-1-(6-(3-((5-chloropyrimidin-2-yl)amino)pyrrolidine-1-carbonyl)indolin-1-yl)-4-(dimethylamino)but-2-en-1-one]
IC50: 1000 to 10000 nM
